Assays:
microtubules [1] = assay: Microtubule organization using concentric perinuclear ring masks; type: cell-based; settings: five sequential dilations of perinuclear ring mask; duplicate wells
Protocol: Domains were defined by five sequential dilations of a perinuclear ring mask, and measurements were made of the mean microtubule-associated intensity, the standard deviation of the microtubule-associated intensity, the mean cytoplasm to nucleus fluorescence intensity ratio, and cell-normalized microtubule fluorescence intensity. For each drug treatment condition, experiments were performed in duplicate.
Finally, the slope of the best linear fit of the microtubule associated fluorescence was calculated as a function of the angular dilation. This way, it was possible to compare the rate of change of these parameters as a function of domain position.

microtubules [2] = assay: Preliminary time-course and 12 hour dose-response evaluations of microtubule polymer mass; type: cell-based; settings: 12 hour dose-response
Protocol: Cell culture/drug treatments: Cells were plated on 96-well plates in the appropriate cell culture media plus 10% FBS. […] Different plating densities and treatment times were explored to maximize the observable effects of the drugs.
Immunofluorescence: This included three steps: (1) Extraction of soluble (monomeric) tubulin by permeabilizing the cells with 0.5% Triton X-100 in a microtubule stabilizing buffer, in order to remove unpolymerized tubulin. (2) Fixation of intracellular protein with 4% formaldehyde. (3) Microtubule, DNA, and (optional) total cellular protein fluorescence labeling. […]
Image Analysis: Quantitative determination of microtubule polymer levels was performed using the methods described above. […] The nuclear image was dilated to produce a perinuclear ring mask, where cytoplasmic tubulin polymer was measured. […]
Quantitation of microtubule-associated intensity was carried out by summing the pixel intensities in the microtubule (MT) channel in the area covered by the perinuclear ring mask. […] From these measurements a MT polymerization index was calculated by normalizing the amount of MT fluorescence in a treated, “experimental” cell population, versus the amount of MT-associated fluorescence in an untreated, control cell population. […] Other methods of quantitation that were used are described below. […]

## COc1cc2c(c(OC)c1OC)-c1ccc(OC)c(=O)cc1[C@@H](NC(C)=O)CC2 [colchicine]
Microtubules [1]
  effect on microtubule organization: microtubule disruption
Microtubules [2]
  quality of dose-response data: good dose-response curves

From patent publication US8050868B2, “Methods for determining the organization of a cellular component of interest” (Cellomics, Inc., priority 2001, dated 2011)
